Test results as given in publication PMC10265101.

Target: recombinant HLA-G (TP305216, OriGene) (human) (UniProt P17693)
Assay: ELISA

Substance HLA-G mAb 87G has an IC50 of 37.8 nM.
